{"source": "patent US11732048B2", "about": "“Anti-axl antagonistic antibodies” (BERGEN TEKNOLOGIOVERFØRING AS, priority 2016, dated 2023)", "tested_on": "A549 tumours", "assay": "A549 human NSCLC xenograft in mice (Examples 14, 16, 17, 18)", "format": "in vivo, mouse", "details": "NUDE mice, A549, i.p. twice weekly for 3 weeks", "procedure": "To evaluate the anti-tumour activity of anti-Axl chimeric antibodies in vivo, we used a mouse xenograft model of human non-small cell lung cancer (NSCLC). The human NSCLC A549 cells (ATCC #CCL-185) A549 cells were propagated in vitro as a monolayer culture in DMEM medium supplemented with 10% FBS, 2 mM L-Glutamine, 100 U/ml penicillin and 100 μg/ml streptomycin, 0.01M HEPES buffer, 0.45% D-(+)-glucose, 1 mM sodium pyruvate. Nude mice were implanted subcutaneously (s.c.) into the flank with 5×10^6 A549 cells resuspended in serum-free medium/Matrigel (1:1). When the tumour size reached 100 mm^3 (Day 0 in FIG. 14), the animals were randomized and treated with either vehicle (sterile PBS) or anti-Axl chimeric antibody 10G5 at 20 mg/kg, by intraperitoneal (i.p.) injections twice weekly for 4 weeks.\nTo compare the anti-tumor effects of two variants of the chimeric antibody c10G5—wt and defucosylated—we used a mouse xenograft model of human non-small cell lung cancer (NSCLC). The human NSCLC A549 cells (ATCC #CCL-185) A549 cells were propagated in vitro as a monolayer culture in DMEM medium supplemented with 10% FBS, 2 mM L-Glutamine, 100 U/ml penicillin and 100 μg/ml streptomycin, 0.01M HEPES buffer, 0.45% D-(+)-glucose, 1 mM sodium pyruvate. SCID mice were implanted subcutaneously (s.c.) into the flank with 5×10^6 A549 cells resuspended in serum-free medium/Matrigel (1:1). […]"}
{"substance": "Erbitux: Anti-EGFR therapeutic antibody cetuximab [reference compound]", "values": [{"measurement": "Significance of single-agent effect versus isotype control (Synagis)", "value": "statistically not significant"}]}
